Source: patent publication US20030036111A1, “Mitochondrial protein” (priority 2001, published 2003)

Molecular target: T1, human DNC (mitochondrial deoxynucleotide carrier) (Homo sapiens, UniProt Q9HC21)
T1 construct: Amino acids are numbered from 1-320; made in house; host or cells: E. coli BL21(DE3), pET21b; inclusion bodies solubilized in sarkosyl, Ni-NTA purified
T1 sequence (Q9HC21 2-320 limits assumed): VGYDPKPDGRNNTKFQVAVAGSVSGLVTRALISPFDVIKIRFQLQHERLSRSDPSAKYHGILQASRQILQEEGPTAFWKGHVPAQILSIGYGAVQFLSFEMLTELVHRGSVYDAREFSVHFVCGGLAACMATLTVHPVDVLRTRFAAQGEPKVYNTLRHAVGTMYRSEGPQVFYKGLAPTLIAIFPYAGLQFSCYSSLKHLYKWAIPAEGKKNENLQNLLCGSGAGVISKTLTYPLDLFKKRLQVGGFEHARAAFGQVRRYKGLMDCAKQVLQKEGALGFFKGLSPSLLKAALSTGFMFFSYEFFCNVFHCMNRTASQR
Test: Inhibition of [α-35S]dATP uptake (dATP/ADP exchange) by external substrates and carrier inhibitors
Type: biochemical
Details: read-out: Ki, competitive inhibition of [α-35 S]dATP uptake by external substrate; internal ADP or dADP 10 mM

Substance: dADP
- pKi: 4.85

pKi: −log10 of the molar value.
